Only a part is listed here, and it is no random draw. Results filed as inconclusive are left out. Entries that show only a call come without a potency. Active and inactive are the calls of the source. The call rests on the fitted dose curve; in most records, active means well fitted inhibition curve with a large enough effect; inconclusive means small, poorly fitted or top-dose-only effect; inactive means no such curve, though single readings can be large or run the other way.
Potency means the concentration at half of the fitted maximal effect.

The assay in a line: qHTS for Inhibitors of TGF-b. Further: nearly all actives have a fitted effect of over 65% in size. The settings on record: HepG2 CAGA-GFP TGF-b/SMAD3 reporter, GFP fluorescence, 18 h, TGF-beta stimulated, 500 pg/mL final; series mostly up to 46.1 µM. Background: qHTS replaces the single test concentration by a dilution series.
In the case of `CP(=S)(Nn1cnnc1)Oc1ccccc1` (configuration not stated), the Potency entry was “inactive”.
Take `CP(=O)(Nc1ccccc1Br)Oc1ccccc1` (configuration not stated): the Potency result is “inactive”.
Consider `COc1ccccc1OP(C)(=O)Nc1ccccc1` (configuration not stated), for which the Potency entry is “inactive”.
Next, `CP(=O)(Oc1ccccc1)OC(c1ccccc1)C(F)(F)F` (configuration not stated): “inactive”.
In the case of `Cc1cccc(C)c1OP(C)(=O)Nc1ccc(SC(F)(F)F)cc1` (configuration not stated) it was “inactive”.
With `CP(=O)(NC(=O)Nc1ccccc1)Oc1ccccc1` (configuration not stated), the Potency entry was “inactive”.
On to `CCOC(=O)c1ccc(NP(C)(=O)Oc2ccc(OC)cc2)cc1` (configuration not stated), for which the Potency entry is “inactive”.
`O=[N+]([O-])c1cc([N+](=O)[O-])c(O)c([N+](=O)[O-])c1.c1ccc(Oc2ccncc2)cc1`: the Potency entry was “inactive”.
Turning to `CCOP(C)(=S)SCC(=O)NC(C)C(=O)O` (configuration not stated), the Potency entry was “inactive”.
Consider `CP(=O)(Nc1ccccn1)Oc1ccc(Cl)cc1` (configuration not stated), for which the Potency entry was “inactive”.
Regarding `CCN(CC)CCCOC(=O)C(O)(c1ccccc1)c1ccccc1`, the Potency entry is “inactive”.
Consider `Cc1cccc(C)c1OP(C)(N)=O` (configuration not stated), for which the Potency entry was “inactive”.
As to `CC(C)(C)c1ccc(OP(C)(=O)Nc2ccc(SC(F)(F)F)cc2)cc1` (configuration not stated), the Potency entry was “inactive”.
In the case of `Cc1ccc(NP(C)(=O)Oc2ccccc2)c(C)c1` (configuration not stated), the Potency result was “inactive”.
In the case of `COc1ccccc1OP(C)(=O)Nc1ccc(C)cc1` (configuration not stated), the Potency result is “inactive”.
Consider `CCOC(=O)c1ccc(NP(C)(=O)Oc2ccccc2)cc1` (configuration not stated), for which the Potency result is “inactive”.
As to `Cc1cc(C)cc(OP(C)(N)=O)c1` (configuration not stated), the Potency entry was “inactive”.
Regarding `COc1ccc(OP(C)(=O)Nc2cccc(F)c2)cc1` (configuration not stated), the Potency result is “inactive”.
For the compound `CC1=NCCc2c1[nH]c1ccccc21.O=[N+]([O-])c1cc([N+](=O)[O-])c(O)c([N+](=O)[O-])c1`, the Potency entry is “inactive”.
As for `COc1ccccc1OP(C)(=O)Nc1cccc(Br)c1` (configuration not stated), the Potency result is “inactive”.
`CCOC(=O)c1ccc(NP(C)(=O)Oc2cc(C)cc(C)c2)cc1` (configuration not stated): the Potency result was “inactive”.
For the compound `Cc1cc(C)cc(OP(C)(=O)Nc2ccc(C)cc2C)c1` (configuration not stated), the Potency result is “inactive”.
As to `Cc1ccc(C)c(NP(C)(=O)Oc2ccccc2)c1` (configuration not stated), the Potency entry is “inactive”.
Next, `CP(=O)(Nc1cccc(Br)c1)Oc1ccccc1` (configuration not stated): “inactive”; `Cc1cc(C)cc(OP(C)(=O)Nc2ccccn2)c1` (configuration not stated): “inactive”; `O=[N+]([O-])c1cc([N+](=O)[O-])c(-n2nnc3ccccc32)c([N+](=O)[O-])c1`: “inactive”.
On to `CN(Cc1cccnc1)C(=O)COc1ccc(Cl)c(Cl)c1.O=[N+]([O-])c1cc([N+](=O)[O-])c(O)c([N+](=O)[O-])c1`, for which the Potency result is “inactive”.
With `Cc1nc2ccc3ccccc3c2s1.O=[N+]([O-])c1cc([N+](=O)[O-])c(O)c([N+](=O)[O-])c1`, the Potency entry was “inactive”.
Turning to `CC1=C2N=C(C=C3N=C(C(C)=C4[N-][C@@](C)([C@@H]5N=C1[C@](C)(CCC(=O)NC[C@@H](C)OP(=O)([O-])O[C@H]1[C@@H](O)[C@@H](n6cnc7cc(C)c(C)cc76)O[C@@H]1CO)[C@H]5CC(N)=O)[C@@](C)(CC(N)=O)[C@@H]4CCC(N)=O)[C@@](C)(CC(N)=O)[C@@H]3CCC(N)=O)C(C)(C)[C@@H]2CCC(N)=O.[C-]#N.[Co+3]`, the Potency entry is “inactive”.
Consider `COc1ccccc1OP(C)(=O)Nc1c(C)cccc1C` (configuration not stated), for which the Potency result is “inactive”.
For `CN1CCCCC1COC(=O)C1(O)c2ccccc2CCc2ccccc21` (configuration not stated), the Potency entry was “inactive”.
Next, `CP(=O)(Nc1ccc(SC(F)(F)F)cc1)Oc1ccccc1` (configuration not stated): “inactive”; `CCCOc1ccc(NP(C)(=O)Oc2ccc(Cl)cc2)cc1` (configuration not stated): “inactive”; `COc1ccc(OP(C)(=O)Nc2cccc(Br)c2)cc1` (configuration not stated): “inactive”.
In the case of `CN(C)CCOC(=O)C(O)(c1ccccc1)C1CCCCC1` (configuration not stated), the Potency entry is “inactive”.
In the case of `COc1ccc(NP(C)(=O)Oc2ccccc2OC)cc1` (configuration not stated), the Potency result is “inactive”.
As to `O=[N+]([O-])c1ccc(OP2(=O)COCCO2)cc1` (configuration not stated), the Potency entry is “inactive”.
In the case of `Cc1cc(-c2cccc3ccccc23)c(C)cn1.O=[N+]([O-])c1cc([N+](=O)[O-])c(O)c([N+](=O)[O-])c1` it was “inactive”; in that of `Cc1c(C(c2ccc3c(c2)OCO3)c2c(C)n(C)n(-c3ccccc3)c2=O)c(=O)n(-c2ccccc2)n1C.O=[N+]([O-])c1cc([N+](=O)[O-])c(O)c([N+](=O)[O-])c1`, “inactive”.
In the case of `CCOP(C)(=S)SCC(=O)NC(C)(CC)C(=O)O` (configuration not stated), the Potency result is “inactive”.
`CP(=O)(Nc1ccc2c(c1)OCCO2)Oc1ccccc1` (configuration not stated): the Potency entry is “inactive”.
For the compound `Cc1ccccc1NP(C)(=O)Nc1ccccc1C`, the Potency entry is “inactive”.
`CP(=O)(Nc1ccccc1F)Oc1ccccc1` (configuration not stated): the Potency result is “inactive”.
`O=C(OCCN1CCN(CCOCc2ccccc2)CC1)C(O)(c1ccccc1)c1ccccc1`: the Potency result was “inactive”.
`CCOC(=O)c1ccc(NP(C)(=O)Oc2ccc(F)cc2)cc1` (configuration not stated): the Potency entry was “inactive”.
Regarding `COc1ccc(OP(C)(=O)Nc2ccc(SC(F)(F)F)cc2)cc1` (configuration not stated), the Potency result is “inactive”.
Next, `CP(=O)(Nc1ccccc1)Oc1ccc(F)cc1` (configuration not stated): “inactive”.
In the case of `CCCCCOc1ccc(NP(C)(=O)Oc2ccc(Cl)cc2Cl)cc1` (configuration not stated), the Potency was active: 10 µM.
As to `COc1ccccc1OP(C)(=O)Nc1ccc(C)c(C)c1` (configuration not stated), the Potency result is “inactive”.
In the case of `COc1ccc(OP(C)(=O)Nc2ccccc2Br)cc1` (configuration not stated) it was “inactive”; in that of `CP(=O)(OCCOc1ccccc1)OCCOc1ccccc1`, “inactive”.
On to `CP(=O)(Nc1ccc(Cl)cc1Cl)Oc1ccccc1` (configuration not stated), for which the Potency entry was “inactive”.
Take `COc1ccccc1OP(C)(=O)Nc1ccc(Br)cc1` (configuration not stated): the Potency entry is “inactive”.
For `COc1ccc(OP(C)(=O)Nc2ccccn2)cc1` (configuration not stated), the Potency result is “inactive”.
In the case of `CN(C)CCOC(=O)C(O)(c1ccccc1)C1CCCC1` (configuration not stated), the Potency entry was “inactive”.
Consider `O=[N+]([O-])c1cc([N+](=O)[O-])c(Nc2ccccn2)c([N+](=O)[O-])c1`, for which the Potency was active: 10 µM.
`Cc1c(NP(C)(=O)Oc2ccc(C(C)C)cc2)c(=O)n(-c2ccccc2)n1C` (configuration not stated): the Potency entry is “inactive”.
Next, `COc1ccccc1OP(C)(=O)Nc1ccc(C)cc1C` (configuration not stated): “inactive”.
As for `CP(=O)(Nc1ccccn1)Oc1ccccc1` (configuration not stated), the Potency entry was “inactive”.
For the compound `CCc1ccc(OP(C)(=O)O)cc1`, the Potency result is “inactive”.
In the case of `COc1ccc(OP(C)(=O)Nc2ccc(Br)cc2)cc1` (configuration not stated), the Potency entry was “inactive”.
Regarding `CCN(CC)CC(O)COC(=O)C(O)(c1ccccc1)C1CCCCC1` (configuration not stated), the Potency entry is “inactive”.
In the case of `O=C(OCCCN1CCCC1)C(O)(c1ccccc1)C1CCCCC1` (configuration not stated) it was “inactive”; in that of `COc1ccccc1OP(C)(=O)Nc1c(C)n(C)n(-c2ccccc2)c1=O` (configuration not stated), “inactive”; in that of `CCc1ccc(OP(C)(=O)Nc2cccnc2)cc1` (configuration not stated), “inactive”.
For `CP(=O)(Oc1ccccc1)N1CCOC1=O` (configuration not stated), the Potency entry is “inactive”.
For `CC(C)(C)c1ccc(OP(C)(=O)O)cc1`, the Potency entry was “inactive”.
With `COc1ccccc1OP(C)(=O)Nc1ccccc1Br` (configuration not stated), the Potency result is “inactive”.
For the compound `CP(=O)(Nc1ccc(Cl)cc1)Oc1ccc(F)cc1` (configuration not stated), the Potency entry was “inactive”.
With `CN(C)C(=O)c1c([N+](=O)[O-])cc([N+](=O)[O-])cc1[N+](=O)[O-]`, the Potency was active: 11.2 µM.
As for `Nc1ccc2c(ccc3cccnc32)n1.O=[N+]([O-])c1cc([N+](=O)[O-])c(O)c([N+](=O)[O-])c1`, the Potency result is “inactive”.
Turning to `CP(=O)(OC12CC3CC(CC(C3)C1)C2)OC12CC3CC(CC(C3)C1)C2`, the Potency entry is “inactive”.

(Values after PubChem BioAssay AID588855 (National Center for Advancing Translational Sciences (NCATS), 2011).)
